How the values were obtained:
[1] = molecular target: T1, FLT3-ITD (Homo sapiens, UniProt P36888, ITD); experiment: HotSpot Kinase assay; assay type: biochemical
[2] = molecular target: T1, FLT3-ITD; experiment: KdELECT competitive binding assay

The chains behind the UniProt entries cited, without tags or fusion partners. Residues count along the entry.
UniProt P36888, 564-993, stated change not applied: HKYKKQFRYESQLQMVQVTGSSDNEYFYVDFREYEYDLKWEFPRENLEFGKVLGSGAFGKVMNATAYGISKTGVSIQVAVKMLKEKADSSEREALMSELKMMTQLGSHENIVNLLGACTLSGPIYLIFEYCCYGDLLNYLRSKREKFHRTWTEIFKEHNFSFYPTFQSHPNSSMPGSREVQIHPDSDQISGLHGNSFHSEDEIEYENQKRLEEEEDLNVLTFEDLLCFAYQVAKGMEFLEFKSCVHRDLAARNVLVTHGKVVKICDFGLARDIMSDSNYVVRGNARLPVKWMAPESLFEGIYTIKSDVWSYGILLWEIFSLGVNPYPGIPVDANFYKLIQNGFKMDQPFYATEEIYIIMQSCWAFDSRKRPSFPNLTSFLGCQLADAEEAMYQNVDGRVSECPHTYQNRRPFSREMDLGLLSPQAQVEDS

Compound C1=C/COCc2cc(ccc2OCCN2CCCC2)Nc2nccc(n2)-c2cccc(c2)COC/1 [Pacritinib, 11-(2-pyrrolidin-1-yl-ethoxy)-14,19-dioxa-5,7,26-triaza-tetracyclo[19.3.1.1(2,6). 1(8,12)]heptacosa-1(25),2(26),3,5,8,10,12(27),16,21,23-decaene] has an IC50 [1] of 9 nM and a Kd [2] of 8.2 nM.

From PMC6858927 (Investigational new drugs, 2019)
